From ChEMBL document CHEMBL1124997, “Mechanism and inhibition of cytochrome P-450 aromatase” (J Med Chem, 1990)

Protein sequences, listed by entry. Tags and fused reporters are not part of them. Lines headed by an entry give the natural chain unless they say otherwise; changes in a name come on top.
UniProt P11511: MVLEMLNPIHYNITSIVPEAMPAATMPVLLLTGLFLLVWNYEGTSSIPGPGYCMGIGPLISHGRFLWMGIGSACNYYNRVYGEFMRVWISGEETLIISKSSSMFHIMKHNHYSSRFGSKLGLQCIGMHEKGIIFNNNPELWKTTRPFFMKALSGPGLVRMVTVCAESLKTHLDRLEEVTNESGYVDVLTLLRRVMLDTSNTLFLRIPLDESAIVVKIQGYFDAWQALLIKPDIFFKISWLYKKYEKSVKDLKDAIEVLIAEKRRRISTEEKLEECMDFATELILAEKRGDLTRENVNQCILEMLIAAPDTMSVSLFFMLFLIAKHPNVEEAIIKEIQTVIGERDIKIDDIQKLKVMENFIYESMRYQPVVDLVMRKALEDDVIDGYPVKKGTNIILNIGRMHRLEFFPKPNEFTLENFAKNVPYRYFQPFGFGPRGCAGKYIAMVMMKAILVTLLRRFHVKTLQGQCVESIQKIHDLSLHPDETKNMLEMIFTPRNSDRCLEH

Target: Aromatase (Homo sapiens, UniProt P11511)

Q: `C[C@]12CCCC=C1CC[C@@H]1[C@@H]2CC[C@]2(C)C(=O)CC[C@@H]12` was tested. Which Ki did it give?
A: 37 nM
